In patent publication US8003595B2, “Amino acid sequences facilitating penetration of a substance of interest into cells and/or cell nuclei” (Cellectis, priority 2000, dated 2011):
“And” between values parts separate entries of the source, which are not always exact repeats. Equal values may be shown once.

System: Caco-2 cell monolayers
Test: Insulin and HBP-insulin conjugates trans-epithelial transport
Settings: for TEER before incubation / TEER after transport: three inserts; for TEER after transport: 60 μg/ml
Protocol: The samples were washed again to eliminate uncoupled materials, and the conjugates were checked by SDS-Page electrophoresis analysis. […] 30 μg of each molecule was incubated on the Caco-2 cell monolayers.
Trans-epithelial transport experiments were carried out. […] The media of the upper and lower compartments were collected. […] For each condition, three inserts were used (triplicates).

For Insulin, the TEER before incubation (1 h group) was 458 Ω · cm^2 and 592 Ω · cm^2 and 445 Ω · cm^2, the TEER after transport (1 h incubation) was 478 Ω · cm^2 and 561 Ω · cm^2 and 425 Ω · cm^2 and the TEER before incubation (4 h group) was 451 Ω · cm^2 and 606 Ω · cm^2 and 510 Ω · cm^2. The TEER after transport (4 h incubation) was 324 Ω · cm^2 and 325 Ω · cm^2 and 305 Ω · cm^2, the TEER before incubation (8 h group) was 442 Ω · cm^2 and 451 Ω · cm^2 and 498 Ω · cm^2 and the TEER after transport (8 h incubation) was 151 Ω · cm^2 and 145 Ω · cm^2. The “quantity in the cell lysate, of the initial loading” value (conjugates: after one hour of transport) was “approximately 0.004%”, the “levels in the apical medium” value (during the whole experiment) was “stayed stable” and the “amount remaining on the filters” value (filters on which Caco-2 cells were grown) was “only a small amount”.
